In patent US20100036088A1, “Selective poly-N-substituted glycine antibiotics” (priority 2008, published 2010):

Columns and labels:
B. subtilis BR151 = type: cell-based; details: Table 1
Excerpt: (§1) An initial set of 15 ampetoid analogs was synthesized to determine whether peptoids are affected by structural and sequence modifications in a manner consistent with AMP activities. The designs for ampetoids in this library were derived from two antibacterial and selective amphipathic dodecamers, 1 and 2. Peptoid 1 [H-(Nlys-Nspe-Nspe)4—NH2] is composed of 2/3 Nspe, the peptoid analog of phenylalanine, and 1/3 Nlys, the peptoid analog of lysine (see FIG. 1 for the structures of representative peptoid monomers and corresponding N-substituents). Peptoid 2 [H-(Nlys-Nssb-Nspe)4—NH2] contains 1/3 isoleucine-like Nssb monomers in place of Nspe. The variant sequences were designed to effect changes in chirality, length, hydrophobicity, charge, and amphipathicity. All of these compounds were tested for antibacterial activity against representative BSL1 Gram-negative (E. coli JM109) and Gram-positive (B. subtilis BR151) bacterial strains. As an initial measure of selectivity, the lytic activity of the peptoids was determined against human erythrocytes. Table 1 summarizes the sequences synthesized, the solvent composition at RP-HPLC elution as a relative measure of molecular hydrophobicity, and antibacterial and hemolytic activities.
(§2) Antibacterial assays. MICs were determined according to CLSI M7-A6 protocols in a 96-well microtiter plate. […]

E. coli JM109 = type: cell-based; details: Table 1
Excerpt: as §1, §2

human erythrocytes = assay: Hemolysis assay; type: cell-based; details: Table 1
Experimental: Hemolysis assays. Erythrocytes were isolated from freshly drawn, heparanized human blood and resuspended to 20 vol % in PBS (pH 7.4). In a 96-well microtiter plate, 100 μL erythrocyte suspension was added to 100 μL peptoid solution in PBS (prepared by 1:2 serial dilutions), or 100 μL PBS in the case of negative controls. 100% hemolysis wells contained 100 μL blood cell suspension with 100 μL 0.2 vol % Triton X-100. The plate was incubated for 1 h at 37° C., then each well was diluted with 150 μL PBS. The plate was then centrifuged at 1200 g for 15 min, 100 μL of the supernatant from each well transferred to a fresh microtiter plate, and A350 measured.
Hemolysis assays. Erythrocytes were isolated from freshly drawn, heparanized human blood and resuspended in PBS (pH 7.4) to make a 20% volume suspension. Peptoid solutions were prepared by serial dilution (2:1) in a 96-well microtiter plate. For test wells, 100 μL of erythrocyte suspension was added to 100 μL of peptoid solution in PBS; PBS without peptoid was used as the negative control and 0.2 vol % Triton X-100 as the positive control that indicates 100% hemolysis. After 1 hour incubation at 37° C., each well was diluted with 150 μL PBS. Plates were then centrifuged at 1,200×g for 15 minutes to pellet the cells. […]

[1] = RP-HPLC elution solvent composition as measure of molecular hydrophobicity; type: physicochemical; details: Table 1; percent acetonitrile in water, 0.1% (v/v) TFA at HPLC elution
Excerpt: as §1, with “hemolytic activities. […]” for “hemolytic activities.”

Q: For `CC[C@H](C)[C@H](NC(=O)CN)C(=O)NCC(=O)N[C@@H](C)C(=O)N[C@H](C(=O)N[C@@H](CC(C)C)C(=O)N[C@@H](CCCCN)C(=O)N[C@H](C(=O)N[C@@H](CC(C)C)C(=O)N[C@H](C(=O)N[C@H](C(=O)NCC(=O)N[C@@H](CC(C)C)C(=O)N1CCC[C@H]1C(=O)N[C@@H](C)C(=O)N[C@@H](CC(C)C)C(=O)N[C@H](C(=O)N[C@@H](CO)C(=O)N[C@@H](Cc1c[nH]c2ccccc12)C(=O)N[C@H](C(=O)N[C@@H](CCCCN)C(=O)N[C@@H](CCCNC(=N)N)C(=O)N[C@@H](CCCCN)C(=O)N[C@@H](CCCNC(=N)N)C(=O)N[C@@H](CCC(N)=O)C(=O)N[C@@H](CCC(N)=O)C(N)=O)[C@@H](C)CC)[C@@H](C)CC)[C@@H](C)O)[C@@H](C)O)C(C)C)C(C)C` [melittin, reference compound], which “B. subtilis MIC” value (B. subtilis BR151) is on record?
A: 0.78 µM

Q: What about the “E. coli MIC” value (E. coli JM109) of the same molecule?
A: 1.6 µM

Q: What about the “HD10 (10% hemolytic dose)” value (human erythrocytes) of the same molecule?
A: 2 µM

Q: And the “HD50 (50% hemolytic dose)” value (human erythrocytes)?
A: 6 µM

Q: And the HPLC elution solvent [1]?
A: 54%
